# scFv variants of Ab-14 (light chain) against a SARS-CoV-2 spike peptide

Values reported by Li et al. 2023, doi:10.1038/s41467-023-39022-2 (FLAb copy).

All variants were tested on one target, the spike HR2 peptide PDVDLGDISGINAS (SARS-CoV-2).

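The starting antibody came from a phage panning campaign against this peptide. Designed CDR sequences, proposed from the first random library and measured here. Several design methods are mixed in this list. The scFvs were displayed on barcoded MATa yeast, the peptide on MATalpha yeast. The frequency of each diploid, read from paired DNA barcodes, reflects how well the two displayed proteins bind. Each replicate has its own calibration line, from reference interactions of the BCL2 family. There are six technical replicates.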

Ab-14 is the parent antibody, in scFv form: VH, then three GGGGS repeats, then VL. The heavy chain is unchanged in all variants.
VH: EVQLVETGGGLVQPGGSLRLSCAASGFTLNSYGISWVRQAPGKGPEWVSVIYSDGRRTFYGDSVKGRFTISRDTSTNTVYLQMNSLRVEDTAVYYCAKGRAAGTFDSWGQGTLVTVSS
VL: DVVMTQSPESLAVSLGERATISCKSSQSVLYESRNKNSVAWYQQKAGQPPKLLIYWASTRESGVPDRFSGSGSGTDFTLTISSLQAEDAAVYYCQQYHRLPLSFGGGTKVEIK

The parent's light chain CDRs are KSSQSVLYESRNKNSVA, WASTRES, QQYHRLPLS; each variant's own CDRs replace them letter for letter. Scale: log10 of Kd in nM, estimated from mating counts; low values are strong binders. An entry "nd" has no value in the source: the pair was not observed among the diploids in that replicate. This suggests poor binding but is not conclusive.

| # | log10 Kd (nM) by replicate | control signals | CDR-L1 | CDR-L2 | CDR-L3 |
|---|---|---|---|---|---|
| 1 | -0.02 / 0.08 / -0.09 / -0.23 / -0.22 / 0.10 | 2 of 18 (2.80) | KQSQSVLMESRNKNSVA | EASTRES | QQYHRLPLS |
| 2 | -0.07 / -0.12 / -0.15 / -0.16 / -0.20 / -0.10 | 1 of 18 (3.18) | KVQQSHLYESRNKNSVA | QASTRES | QQYHRLPLS |
| 3 | nd / nd / nd / nd / nd / nd | 0 of 18 | KCSQSVTYESRNKNSVA | WASTRES | VQYHRLPLS |
| 4 | -0.15 / 0.08 / -0.10 / -0.28 / -0.34 / 0.04 | 1 of 18 (3.02) | KISQSVNYLSRVMNSVA | DNSTRES | QQYFRLPLS |
| 5 | 0.06 / -0.03 / 0.11 / 0.15 / 0.04 / 0.25 | 1 of 18 (2.72) | KSSWSVLGESGNKNSVA | HASTRED | QQYHRLPLS |
| 6 | 1.15 / 0.60 / 1.58 / 0.53 / 0.88 / 1.14 | 0 of 18 | KSSISFLYESRNENSVA | EASTREQ | QQYHRLPLS |
| 7 | nd / nd / nd / nd / nd / nd | 2 of 18 (1.43) | KSCQSVLYESRNKNSVA | WASTRES | QQYHRLPLS |
| 8 | 1.19 / 1.95 / 0.92 / 1.77 / nd / 2.04 | 0 of 18 | HLSDSVLYESRNQNSVA | NASTRES | QQYHRLPLN |
| 9 | 1.47 / 1.03 / 1.49 / 1.54 / 1.29 / 0.96 | 1 of 18 (1.48) | MFSQLVYTGSRTRNAVA | QASTREN | QQYHHLPLA |
| 10 | 0.65 / 0.40 / 0.26 / 0.05 / 0.35 / 0.30 | 0 of 18 | NLGFVDANDNRGMMNVA | DVNTVGE | QQYNRLPLA |
| 11 | 1.28 / 2.05 / 1.68 / 1.38 / 1.22 / 1.70 | 4 of 18 (3.03) | KSSQSILYESRNANSVA | WASTRES | FQYQRLPLS |
| 12 | -0.04 / -0.14 / -0.21 / -0.33 / -0.23 / 0.02 | 3 of 18 (2.66) | KVSQSVGYESRNKNSVA | DASTRES | QQYHRLPLS |
| 13 | 0.46 / 0.53 / 0.39 / 0.57 / 0.40 / 0.65 | 0 of 18 | NIQDNLGGLLSQINSVA | STEEKSD | QSYHRLPLS |
| 14 | 0.27 / 0.17 / 0.10 / -0.02 / 0.05 / 0.35 | 0 of 18 | KIGMTLNQLMHEKNNVA | DLVTREN | QQYHRLPLS |
| 15 | -0.09 / -0.24 / -0.34 / -0.44 / -0.51 / -0.18 | 0 of 18 | KLSQSWLYESRNKNNVA | NASQRES | QQYHRLPLS |
| 16 | 0.34 / 0.63 / 0.15 / 0.19 / 0.19 / 0.63 | 1 of 18 (2.61) | KISGMYQKESKNKNSVA | EMVNRVS | QQYDRLPLS |
| 17 | nd / nd / nd / 1.24 / nd / nd | 0 of 18 | KSSQSVLYESRNVNSVA | WASQREQ | QQYHVLPLS |
| 18 | 0.07 / -0.11 / -0.21 / -0.24 / -0.17 / 0.30 | 0 of 18 | KLSQSQDYESRNSKSVA | DASTRLS | QQYHRLPLS |
| 19 | 1.62 / 1.19 / 2.03 / 2.86 / 1.48 / 2.23 | 1 of 18 (3.24) | KVSEFTRGLMSRQDSIA | DNVTRNN | QQYDRLPLS |
| 20 | 0.43 / 0.39 / 0.19 / 0.06 / 0.39 / 0.43 | 0 of 18 | SVQYFPEESLRGASAIA | DVNIAVM | QQYSRLPLA |
| 21 | -0.01 / -0.11 / -0.15 / -0.34 / -0.10 / -0.05 | 0 of 18 | KLSQSDGYQARNSNSVA | HASTRED | QQYHRLPLS |
| 22 | nd / nd / nd / nd / nd / nd | 1 of 18 (3.61) | MISLCQNGYYDQNNSIA | DRNERAM | QQYGRLPLV |
| 23 | 0.33 / 0.12 / -0.01 / 0.08 / 0.50 / 1.05 | 0 of 18 | KSLQSGLGESRNKNSVA | HASTRED | QQYHRLPLS |
| 24 | nd / nd / nd / nd / nd / nd | 0 of 18 | TISQVMNTLTRHGNNVA | DLQEREE | QQYFRLPLS |
| 25 | -0.07 / -0.10 / -0.19 / -0.25 / -0.33 / 0.14 | 5 of 18 (2.66) | KSGQGVDYESRNKNSVA | GASLRES | QQYHRLPLS |
| 26 | nd / nd / nd / nd / nd / nd | 0 of 18 | KSSQSVLYESRNKNSVA | WASTRES | QQYHRLELS |
| 27 | -0.23 / -0.34 / -0.40 / -0.33 / -0.43 / -0.41 | 0 of 18 | KSSQSELMESRNKNSVA | DASTRES | QQYHRLPLS |
| 28 | 0.57 / 1.11 / 1.16 / 2.67 / 0.62 / 1.33 | 0 of 18 | IVSQSVLGGSRNLNSVA | QTSERNY | QQYDRLPLS |
| 29 | 1.76 / 0.45 / 1.48 / 1.15 / 0.56 / 0.83 | 2 of 18 (2.37) | KSSQSVVYESRNKNSVA | EASTREA | QQYHRLPAS |
| 30 | -0.49 / -0.46 / 0.07 / -0.19 / -0.36 / -0.43 | 1 of 18 (1.46) | KSLQSVLYESRNKNSVA | HASVRED | QQYHRLPLS |
| 31 | 0.53 / 0.24 / 0.04 / 0.01 / 0.38 / 0.29 | 1 of 18 (2.63) | KLSQSDLYESRMKNSVA | NASTRES | QQYHRLPLS |
| 32 | -0.03 / -0.02 / 0.14 / -0.25 / -0.21 / 0.07 | 2 of 18 (3.82) | KVSFFNEQVTKKGSNVA | DNETRES | QQYFRLPLS |
| 33 | 0.92 / 0.60 / 1.02 / 0.58 / 0.77 / 0.95 | 2 of 18 (1.91) | MMSQVTGQGTRHRNNVA | QTSTREP | QQYDRLPLM |
| 34 | 1.03 / 0.51 / 0.73 / 0.43 / 0.75 / 0.70 | 0 of 18 | KIQDNLGTLMEQINSVA | NSEEIVQ | QSYFRLPLS |
| 35 | 0.48 / 0.38 / 0.38 / 0.83 / 0.55 / 0.43 | 2 of 18 (2.16) | KVKEDLNMGLKFQSSVA | SGAHREH | QQYYRLPLG |
| 36 | -0.46 / -0.46 / -0.54 / -0.68 / -0.56 / -0.33 | 3 of 18 (2.42) | KMSQSWLYESRNKNNVA | NASQRES | QQYHRLPLS |
| 37 | 1.98 / 2.20 / 1.89 / 1.81 / 1.63 / 2.43 | 3 of 18 (2.53) | KVSEFMRGLMMRKDSIA | DNVTRNN | QQYDRLPLS |
| 38 | 0.68 / 0.66 / 0.48 / 0.60 / 0.79 / 0.79 | 1 of 18 (3.93) | MFSQSVMYGSLYRNSVA | QTSTRES | QQYDRLPLS |
| 39 | 3.14 / 1.81 / 1.85 / 2.01 / 1.49 / 1.66 | 0 of 18 | KSSQSVPYESQNKNSVA | WASTRES | QQYHRLPLS |
| 40 | 1.66 / 1.57 / 2.20 / 1.33 / 3.26 / 3.02 | 0 of 18 | SLTAHEEEKKGAEASVA | EAVMLES | QQYHQLPLM |
| 41 | 1.29 / 0.73 / 0.82 / 0.69 / 0.91 / 1.09 | 0 of 18 | KLSHSVLYETFDKNSVA | WASTRES | QQYHRLPLS |
| 42 | -0.12 / -0.17 / -0.18 / -0.38 / -0.35 / -0.17 | 0 of 18 | KLPQSQLYESRNKNSVA | GASTRES | QQYHRLPLS |
| 43 | 0.07 / -0.37 / -0.32 / -0.23 / -0.43 / -0.15 | 4 of 18 (3.09) | KISQSVLYESRNKNSVA | QASTRES | QQYHRLPLS |

Again, the first 3 entries without any signal:

{"CDR-L1": "KCSQSVTYESRNKNSVA", "CDR-L2": "WASTRES", "CDR-L3": "VQYHRLPLS", "log10 Kd (nM) by replicate": "nd / nd / nd / nd / nd / nd", "control signals": "0 of 18"}
{"CDR-L1": "KSCQSVLYESRNKNSVA", "CDR-L2": "WASTRES", "CDR-L3": "QQYHRLPLS", "log10 Kd (nM) by replicate": "nd / nd / nd / nd / nd / nd", "control signals": "2 of 18 (1.43)"}
{"CDR-L1": "MISLCQNGYYDQNNSIA", "CDR-L2": "DRNERAM", "CDR-L3": "QQYGRLPLV", "log10 Kd (nM) by replicate": "nd / nd / nd / nd / nd / nd", "control signals": "1 of 18 (3.61)"}

Values of this round are not directly comparable with the first-round values of the same sequences. Nonspecific signal, from three strains lacking the peptide, appeared in 4% of pairings of all light chain designs, centred on 2.64 (5% of these signals below 1.59); values are not corrected for it. The control count says in how many pairings with the empty strains this scFv gave a signal, with their mean in brackets. In the paper, a design with two or fewer of six values counts as a poor binder. The parent sequence was in this pool as ten entries: three were never detected, three once, and four in most replicates, with averages from 0.34 to 2.37.